Here are results for one compound from EPA's ToxValDB 9.5.

For the series, the system named is Rattus norvegicus. The following applies: acute; oral.

Each structure is given as a SMILES string.

In general, LD50 refers to the dose expected to kill half of the subjects tested. A lower LD50 goes with greater toxicity. Consider `CC(O)C(=O)O` (stereo unspecified) [Lactic acid], for which the LD50 is not above 4940 mg/kg.
